Consider two compounds from US12263171B2, “7-, 8-, and 10-substituted amino triazolo quinazoline derivatives as adenosine receptor antagonists, pharmaceutical compositions and their use” (Merck Sharp & Dohme LLC, priority 2018, dated 2025).

The chains behind the UniProt entries cited, without tags or fusion partners.
UniProt P29275, whole entry: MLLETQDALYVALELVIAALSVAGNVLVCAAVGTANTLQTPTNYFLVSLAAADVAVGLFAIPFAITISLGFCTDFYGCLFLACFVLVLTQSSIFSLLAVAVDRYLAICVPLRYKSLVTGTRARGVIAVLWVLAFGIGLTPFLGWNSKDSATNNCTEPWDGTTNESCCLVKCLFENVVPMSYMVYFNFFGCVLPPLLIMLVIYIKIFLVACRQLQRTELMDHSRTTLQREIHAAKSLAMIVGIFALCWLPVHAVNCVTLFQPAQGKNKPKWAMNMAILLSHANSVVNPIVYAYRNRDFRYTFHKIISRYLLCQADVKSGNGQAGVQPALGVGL

SMILES strings stand for the structures.

In assay [1] the target is T1, human A2b adenosine receptor (Homo sapiens (Human), UniProt P29275). Nature of the assay: A2B antagonism in cAMP cell-based assay (LANCE cAMP, HEK293 cells, 600 nM adenosine). Conditions: read-out: *A2B cAMP IC50; values marked *: cAMP cell-based assay. A general note: In TR-FRET formats the signal depends on donor and acceptor labels being close together.
In assay [2] the target is human A2a adenosine receptor (Homo sapiens (Human), UniProt P29274). As to the kind of experiment: A2A antagonism in cAMP cell-based assay (LANCE cAMP, HEK293 cells, 300 nM adenosine). Conditions: read-out: *A2A cAMP IC50; values marked *: cAMP cell-based assay.
Assay [3] addresses T1, human A2b adenosine receptor. As to the kind of experiment: A2b radioligand filtration binding assay (tritiated proprietary A2b antagonist, HEK293 membranes). The following applies: unstarred.

As a reminder, the IC50 is the point on the concentration scale where inhibition reaches its midpoint. For `CCC1CCC(c2nc3c4ccc(OC)cc4nc(N)n3n2)CN1c1cnn(CC(C)(C)O)c1` (single isomer, unassigned), the IC50 in assay [1] was 2390 nM; in assay [2], 68.8 nM.

As for `COc1ccc2c(c1)nc(N)n1nc(C3CC(F)CN(c4cnn(CC(C)(C)O)c4)C3)nc21` (single isomer, unassigned), the “A2B binding % inh. @ 10000 nM” value in assay [3] is recorded as 27% inh. @ 10000 nM. Moreover, the IC50 in assay [2] stood at 125 nM.
